Paper PMC8565515, “Dasabuvir Inhibits Human Norovirus Infection in Human Intestinal Enteroids” (mSphere, 2021)

system: J2 HIE monolayers; assay: Cytotoxicity by LDH assay in J2 HIE monolayers; conditions: compound 10 μM, n = 1, LDH assay, J2 HIE monolayers infected with GII.4 HuNoV, 24 hpi, normalized to DMSO control

Going from `C=C(C)[C@@H]1CC[C@]2(C(=O)O)CC[C@]3(C)[C@H](CC[C@@H]4[C@@]5(C)CC[C@H](O)C(C)(C)[C@@H]5CC[C@]43C)[C@@H]12` [Betulinic acid] to `NC(=O)N1CCC(CC(=O)N2CCC([C@H]3c4ncc(Br)cc4CCc4cc(Cl)cc(Br)c43)CC2)CC1` [Lonafarnib], the “(%) Cytotoxicity” value falls from 2.09% to 1.84%.

First: Cc1cc(O)cc(C)c1Cl [Chloroxylenol]
Second: O=C(Nc1ccccc1)c1ccccc1O [Salicylanilide]
The “(%) Cytotoxicity” value of the first is lower: 1.68% for the first, 1.82% for the second.

`C[C@@H]1CCO[C@H]2Cn3cc(C(=O)NCc4ccc(F)cc4F)c(=O)c(O)c3C(=O)N12` [Dolutegravir] and `Cn1c(Cn2ccc(C(F)(F)F)c(Oc3cc(Cl)cc(C#N)c3)c2=O)n[nH]c1=O` [Doravirine] are the same in “(%) Cytotoxicity” value: -1.39% for the first, -1.39% for the second.

Going from `NC(=O)c1ncn([C@@H]2O[C@H](CO)[C@@H](O)[C@H]2O)n1` [Ribavirin] to `S=C(NCCc1ccccn1)Nc1ccc(Br)cn1` [Trovirdine], the “(%) Cytotoxicity” value falls from -0.09% to -2.69%.

`CC(=O)Oc1c(C)c(C)c2c(c1C)CCC(C)(CCC[C@H](C)CCC[C@H](C)CCCC(C)C)O2` (stereo partly shown) [Vitamin E Acetate] was tested, and the “(%) Cytotoxicity” value was 1.21%.

system: J2 HIE monolayers; assay: not given; conditions: not given

First: Cc1nn(CCC(=O)Nc2cccc(C#N)c2)c(C)c1S(=O)(=O)N1CCCCC1 [G402-0939]
Second: Cc1cccc(N2CCN(S(=O)(=O)c3ccc4c(c3)CCCN4C(=O)C3CCC3)CC2)c1C [G855-2047]
The “(%) Cytotoxicity” value of the first is higher: 1.01% for the first, -2.02% for the second.

same assay, conditions: human, 24 h, 10 μM

First: CC1(C)S[C@@H]2[C@H](NC(=O)[C@H](NC(=O)N3CCNC3=O)c3ccccc3)C(=O)N2[C@H]1C(=O)O [Azlocillin sodium]
Second: C[C@H](NC(=O)C(=O)Nc1ccccc1C(C)(C)C)C(=O)N[C@@H](CC(=O)O)C(=O)COc1c(F)c(F)cc(F)c1F [Emricasan]
The “(%) Cytotoxicity” value of the first is lower: -1.98% for the first, 1.13% for the second.

Compared with `O=C(O)[C@H]1O[C@@H](Oc2cc3oc(-c4ccccc4)cc(=O)c3c(O)c2O)[C@H](O)[C@@H](O)[C@@H]1O` [Baicalin], `Cc1c(-c2cnccn2)ssc1=S` [Oltipraz] is lower in “(%) Cytotoxicity” value: 1.68% for the first, -4.37% for the second.

system: GII.4 HuNoV; assay: GII.4 HuNoV infection of HIE monolayers, viral genome equivalents by RT-qPCR; format: cell-based, human norovirus; conditions: compound 10 μM, n = 1, J2 HIE monolayers, 24 hpi, normalized to DMSO control

With `COc1cc2ncnc(Nc3cccc(Cl)c3)c2cc1OC` [AG-1478] the “(%) HuNoV GEs” value was 1.56%.
